This passage reports Kd results from PMC3861454, “Structures of Wnt-Antagonist ZNRF3 and Its Complex with R-Spondin 1 and Implications for Signaling” (PLoS ONE, 2013).

The chains behind the UniProt entries cited, without tags or fusion partners. Residues count along the entry.
UniProt Q5SSZ7, 53-216: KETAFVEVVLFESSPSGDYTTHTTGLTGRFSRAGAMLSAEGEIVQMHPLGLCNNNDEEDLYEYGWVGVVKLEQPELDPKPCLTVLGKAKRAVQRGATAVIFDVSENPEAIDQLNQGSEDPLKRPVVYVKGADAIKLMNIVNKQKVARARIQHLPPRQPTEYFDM

The assay addresses ZNRF3 ectodomain with C-terminal biotin acceptor peptide (C-BAP) tag, biotinylated in vivo (mouse) (UniProt Q5SSZ7). Kind of assay: SPR; IBIS MX96; biotinylated ZNRF3 immobilised on a G-streptavidin sensor chip at different ligand densities; analytes flowed in 25 mM HEPES pH 8.0, 150 mM NaCl, 25 °C; equilibrium dose-response, global fit to a 1:1 binding model. (Surface plasmon resonance follows binding to a sensor surface in real time, without labels.)

Consider “LGR5-RSPO1 complex (LGR5 ectodomain with RSPO1 furin-like domains) (from UniProt O75473 22-907; Q2MKA7 31-146)”, for which the equilibrium dissociation constant (Kd) came out at 2500 nM. In other words, the single-digit micromolar range.

A word on the Kd: it is the concentration at which binding is half-saturated. Lower therefore signals a tighter complex.
